A word on the EC50: it is the concentration at which the effect is half-maximal.

Chains of the proteins cited; added tags and fusions are not shown.
UniProt P31645, whole entry, looked up: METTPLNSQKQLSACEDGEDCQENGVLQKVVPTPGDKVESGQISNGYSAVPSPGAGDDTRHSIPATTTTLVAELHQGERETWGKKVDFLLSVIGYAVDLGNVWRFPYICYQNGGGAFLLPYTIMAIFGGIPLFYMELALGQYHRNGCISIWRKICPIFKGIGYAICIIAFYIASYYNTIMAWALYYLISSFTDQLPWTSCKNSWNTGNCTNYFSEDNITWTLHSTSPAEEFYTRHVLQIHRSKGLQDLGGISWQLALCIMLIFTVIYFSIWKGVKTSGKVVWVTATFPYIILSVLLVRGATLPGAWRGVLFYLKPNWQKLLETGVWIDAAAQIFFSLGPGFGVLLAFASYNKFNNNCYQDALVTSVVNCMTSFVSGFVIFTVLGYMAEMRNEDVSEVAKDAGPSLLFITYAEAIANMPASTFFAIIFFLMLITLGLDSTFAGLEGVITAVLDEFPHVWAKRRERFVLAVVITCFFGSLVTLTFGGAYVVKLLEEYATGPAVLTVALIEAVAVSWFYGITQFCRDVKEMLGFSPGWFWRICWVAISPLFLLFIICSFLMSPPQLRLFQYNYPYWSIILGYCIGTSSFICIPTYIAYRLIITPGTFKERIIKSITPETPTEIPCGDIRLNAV

One assay addresses SERT (Homo sapiens, UniProt P31645). The assay can be described thus: Receptor binding, SERT. To be noted: @ 200 nM.
The subject of a further assay is male C57BL/6J mice. The experiment in a line: Oxycodone-dependent withdrawal study in mice. The format is in vivo. To be noted: (1) Oxycodone; (2) Compound 3.0 mg/kg, (3) Naloxone 3 mg/kg.
The next assay has as its system C57 mice. The assay can be described thus: Formalin paw test (inflammatory pain model). The format is in vivo. To be noted: SC 1.0 mg/kg; 0-10 min.
Assay [1] has as its system recombinant human MOP-beta-arresting signaling pathway. To be noted: read-out: EC50 (stimulation of beta-arrestin signaling).

Consider `O=c1[nH]c2cccc3c2n1[C@H]1CCN(CCCOc2ccc(F)cc2)C[C@@H]31`, for which the maximum inhibition at SERT came out at 0% @.

As to `O=C1CN2c3c(cccc3[C@@H]3CN(CCCOc4ccc(F)cc4)CC[C@@H]32)N1` [Example 1, (6bR,10aS)-8-(3-(4-fluorophenoxy)propyl)-6b,7,8,9,10,10a-hexahydro-1H-pyrido[3′,4′:4,5]pyrrolo[1,2,3-de]quinoxalin-2(3H)-one], the “Paw Tremors” value in the assay on male C57BL/6J mice was 0.5. Also, the “Mean Behavior Rating (0-4)” value in the assay on C57 mice amounted to 1.3.

Take Met-enkephalin: the concentration giving a half-maximal response (EC50) in assay [1] was found to be 80 nM.

Source of the values: US12331052B2, “Organic compounds” (INTRA-CELLULAR THERAPIES, INC., priority 2018, dated 2025).
